These results are taken from patent publication US9688668B2, “Long chain base sphingosine kinase inhibitors” (UNIVERSITY OF VIRGINIA PATENT FOUNDATION, priority 2012, dated 2017).

Protein sequences, listed by entry. Tags and fused reporters are not part of them. Lines headed by an entry give the natural chain unless they say otherwise; changes in a name come on top.
UniProt Q9JIA7: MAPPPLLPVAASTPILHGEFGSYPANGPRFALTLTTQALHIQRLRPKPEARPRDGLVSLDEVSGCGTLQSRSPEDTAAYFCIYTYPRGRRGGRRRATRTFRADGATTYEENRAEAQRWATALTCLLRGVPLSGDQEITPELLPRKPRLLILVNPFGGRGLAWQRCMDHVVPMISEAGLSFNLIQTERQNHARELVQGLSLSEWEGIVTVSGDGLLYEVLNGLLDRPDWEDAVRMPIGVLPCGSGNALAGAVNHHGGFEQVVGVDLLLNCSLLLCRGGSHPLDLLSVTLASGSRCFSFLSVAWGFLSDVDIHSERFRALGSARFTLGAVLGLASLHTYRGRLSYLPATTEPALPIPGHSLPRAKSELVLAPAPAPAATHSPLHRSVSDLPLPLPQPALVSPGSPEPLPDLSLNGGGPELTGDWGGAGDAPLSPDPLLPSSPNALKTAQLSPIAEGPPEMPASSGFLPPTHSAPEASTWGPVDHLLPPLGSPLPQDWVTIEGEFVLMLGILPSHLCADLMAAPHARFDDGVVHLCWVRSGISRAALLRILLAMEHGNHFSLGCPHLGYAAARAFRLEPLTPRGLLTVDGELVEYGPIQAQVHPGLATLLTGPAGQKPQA

Each structure is given as a SMILES string.

This test deals with recombinant SphK2 (Mus musculus, UniProt Q9JIA7). Nature of the test: SphK2 scintillation proximity kinase assay. The test is classed as biochemical. Particulars: recombinant SphK1 and SphK2; variable sphingosine, fixed ATP. On the technique in general: SPA uses beads or plates that emit light when radiolabelled molecules are held near them.

Turning to `CCCCCCCCCCCCc1ccc(C(=O)N2CCCC2C(=N)N)cc1` (stereo not shown) [Compound 1a, reference compound], the pattern of inhibition entry is listed as “competitive inhibition”.
